{"sequences": {"note": "The chains behind the UniProt entries cited, without tags or fusion partners. Residues count along the entry.", "UniProt P14780, 94-707": "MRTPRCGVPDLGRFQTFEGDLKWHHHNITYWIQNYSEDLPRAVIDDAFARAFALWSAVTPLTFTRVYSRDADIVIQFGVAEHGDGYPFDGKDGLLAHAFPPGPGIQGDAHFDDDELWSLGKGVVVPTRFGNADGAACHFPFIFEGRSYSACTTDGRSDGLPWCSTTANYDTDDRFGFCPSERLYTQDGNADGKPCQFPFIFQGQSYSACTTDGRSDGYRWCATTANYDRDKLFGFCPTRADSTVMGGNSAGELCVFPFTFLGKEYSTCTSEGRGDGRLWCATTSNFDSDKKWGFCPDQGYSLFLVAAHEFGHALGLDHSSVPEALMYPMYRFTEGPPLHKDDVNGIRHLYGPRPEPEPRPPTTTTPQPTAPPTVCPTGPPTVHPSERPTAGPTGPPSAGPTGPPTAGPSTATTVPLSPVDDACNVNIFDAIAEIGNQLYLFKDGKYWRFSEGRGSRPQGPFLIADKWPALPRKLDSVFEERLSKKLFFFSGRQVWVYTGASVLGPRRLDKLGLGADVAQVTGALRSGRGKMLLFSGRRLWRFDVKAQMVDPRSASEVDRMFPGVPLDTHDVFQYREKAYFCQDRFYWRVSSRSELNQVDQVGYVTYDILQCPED"}, "source": "patent US6071903A", "about": "“2,3,4,5-tetrahydro-1H-[1,4]-benzodiazepine-3-hydroxyamic acids” (American Cyanamid Company, priority 1999, dated 2000)", "target": "MMP-9 (Homo sapiens, UniProt P14780)", "test": "In Vitro Gelatinase Assay (MMP-9)", "assay_type": "biochemical", "details": "read-out: IC50 (nM) MMP-9; human neutrophil gelatinase B"}
{"smiles": "COc1ccc(S(=O)(=O)N2Cc3ccccc3N(C(=O)c3cccs3)CC2C(=O)NO)cc1", "note": "(stereo not shown) [Example 8, 4-(4-Methoxybenzenesulfonyl)-1-(2-thienylcarbonyl)-2,3,4,5-tetrahydro-1H-[1,4]benzodiazepine-3-carboxylic acid, Hydroxyamide]", "values": [{"measurement": "IC50", "result": 1.1, "unit": "nM"}]}
